Among the data in PubChem BioAssay AID540263 (National Center for Advancing Translational Sciences (NCATS), 2011) are Potency values, retold here.

The chains behind the UniProt entries cited, without tags or fusion partners.
UniProt Q14974, whole entry, looked up: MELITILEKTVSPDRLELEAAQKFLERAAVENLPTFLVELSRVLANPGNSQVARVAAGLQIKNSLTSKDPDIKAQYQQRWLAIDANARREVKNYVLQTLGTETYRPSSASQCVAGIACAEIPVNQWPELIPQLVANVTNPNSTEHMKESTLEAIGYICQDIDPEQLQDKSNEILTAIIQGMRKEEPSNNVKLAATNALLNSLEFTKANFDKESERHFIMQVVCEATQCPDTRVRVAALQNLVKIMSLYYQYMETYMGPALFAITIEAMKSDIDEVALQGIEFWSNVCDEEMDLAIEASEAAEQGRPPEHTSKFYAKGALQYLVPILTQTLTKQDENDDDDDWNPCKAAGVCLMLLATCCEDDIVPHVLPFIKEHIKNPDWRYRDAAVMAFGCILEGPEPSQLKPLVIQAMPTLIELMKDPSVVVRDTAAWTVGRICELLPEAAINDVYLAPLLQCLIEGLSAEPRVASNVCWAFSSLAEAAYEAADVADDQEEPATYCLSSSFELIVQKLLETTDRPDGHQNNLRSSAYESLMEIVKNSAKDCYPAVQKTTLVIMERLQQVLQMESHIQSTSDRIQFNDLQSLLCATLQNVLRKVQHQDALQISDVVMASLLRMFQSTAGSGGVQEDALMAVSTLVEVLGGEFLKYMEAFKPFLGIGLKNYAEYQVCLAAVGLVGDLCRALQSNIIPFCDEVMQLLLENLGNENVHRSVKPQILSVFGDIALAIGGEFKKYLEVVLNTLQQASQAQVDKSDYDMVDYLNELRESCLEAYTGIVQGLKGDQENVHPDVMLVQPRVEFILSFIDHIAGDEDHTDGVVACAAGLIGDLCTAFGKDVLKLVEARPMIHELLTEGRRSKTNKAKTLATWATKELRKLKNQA

The campaign covered roughly 340,000 compounds. About 100 (0.029%) were called active. Entries that show only a call come without a potency. About 8% were inconclusive and are not listed. The call rests on the fitted dose curve. Only a selection was taken, and actives are over-represented in it overall. Where a SMILES comes first, the peptide text is derived from it. [ ]: non-standard residue; d: D form. ξ: configuration not given here. Ac5c = NC1(C(=O)O)CCCC1; ξS = NC(CO)C(=O)O
Potency means the concentration at half of the fitted maximal effect; tags describe the fitted curve by direction and shape.

The assay concerns the target Importin subunit beta-1 (Homo sapiens) (UniProt Q14974). Nature of the assay: qHTS Assay for Inhibitors of Rango (Ran-regulated importin-beta cargo) - Importin beta complex formation. Further: nearly all actives have a fitted effect of over 15% in size. The conditions noted are these: Rango CFP/YFP FRET sensor + importin beta, 45 min; series mostly up to 92.2 µM. The source says:
NIH Molecular Libraries Probe Production Centers Network [MLPCN] NIH Chemical Genomics Center [NCGC] MLPCN Grant: R03 MH090808-01A1 Assay Submitter (PI): Petr Kalab NCGC Assay Overview: The small GTPase Ran regulates transport of macromolecules between the nucleus and the cytoplasm (nuclear transport) and has important functions in mitotic spindle assembly, nuclear envelope (NE) formation and nuclear pore complex (NPC) assembly. RanGTP gradient is thought to promote spindle assembly by providing a spatial clue to microtubule nucleation and Aurora A activation. Because the localized release and binding of importin alpha cargo relays this spatial clue to SAFs, inhibitors of the Rango - importin beta complex can then be used in further understanding their role in cell cycle specifically in mitosis progression. […] Activation of Aurora A has been linked to different types of cancer and a number of Aurora kinase inhibitors are being developed as potential canter therapeutics therefore, identified inhibitors of this complex could be developed into potential anti-mitotic probes for cancer treatment. Purified recombinant proteins Rango and importin beta were provided by the assay submitter. The assay used a fluorescence resonance energy transfer (FRET) Rango biosensor that contains the IBB of human snurportin 1 flanked by yellow fluorescent protein (EYFP) at the amino terminus and cerulean CFP10 at the carboxy terminus. […] Inhibitors will therefore be identified based on the ability to interfere with the FRET signal decrease. DMSO treated and no importin beta (buffer only) wells were used as negative and positive controls respectively. FRET readings were obtained at two time points. FRET reading prior to importin beta addition (pre-read) were used flag potential compound interference; FRET reading after importin beta addition (post-read) were used to identify inhibitors using the FRET ratio parameter.
NCGC Assay Protocol Summary: Two and a half uL/well of Rango-buffer solution (50 nM Rango, 1x PBS, 1mM DTT, 0.02% Tween-20, 0.1% BSA final concentrations) was dispensed into 1536-well assay plates (Greiner, solid black medium-binding plates) with Aurora Discovery BioRAPTR Flying Reagent Dispenser (FRD; Beckton-Dickenson). Compound solution (23 nL) was transferred to the assay plate using Kalypsys pin tool equipped with a 1536-pin tool and incubated at room temperature for 5 min followed by a FRET pre-read using the PerkinElmer Envision plate reader. Two and a half uL/well of Importin beta - buffer solution (0.125 microM importin beta, 1x PBS, 1mM DTT, 0.02% Tween-20, 0.1% BSA final concentrations) were then added and incubated at room temperature giving a final reaction volume of 5uL. After 45min FRET post-read was obtained via the Envision plate reader using the same optics and settings as the pre-read (CFP/YFP optimized dual optical module D450/D505; excitation mirror CFP 430/24 nm; and emission filters CFP 486/10 nm and YFP 530/10 nm).
On the technique in general: Quantitative high-throughput screening tests each substance at several concentrations.
Consider `COc1cccc(-n2nc(C(=O)N3CCN(Cc4ccccc4)CC3)c3ccccc3c2=O)c1`, for which the Potency result is “inactive”.

Regarding `CCOC(=O)N1CCN(Cc2nc3ccc([N+](=O)[O-])cc3c(=O)n2-c2cccc(OC)c2)CC1`, the Potency was 65.1 µM (active).

As for `CCOC(=O)N1CCN(Cc2nc3cc(NC(C)=O)ccc3n2C)CC1`, the Potency result is “inactive”.

Regarding `C=CCn1c(=O)n(C)c2c(=O)n(C)c(=O)n(C)c21`, the Potency result was “inactive”. Consider `CCc1nnc(NC(=O)c2cc(S(=O)(=O)N3CCN(CC)CC3)ccc2Cl)s1`, for which the Potency entry was “inactive”. Turning to `O=[N+]([O-])c1ccc(N2CCOCC2)cc1`, the Potency entry was “inactive”. For `COC1=CC(=O)OC(c2ccc(OC)cc2)C1` (centres undefined), the Potency result was “inactive”. The same measure for `C[C@@H]1NS(=O)(=O)c2cc(Cl)ccc2O[C@@H]1c1ccccc1`: “inactive”.

In the case of `Cc1onc(-c2c(F)cccc2Cl)c1C(=O)Nc1cccc(S(=O)(=O)N2CCCCC2)c1`, the Potency entry was “inactive”.

As to `COc1cc(O)c2c(=O)c3c(O)c(O)ccc3oc2c1OC`, the Potency entry is “inactive”. Take `COc1ccccc1C(=O)c1ccccc1C(=O)c1ccccc1`: the Potency result is “inactive”. In the case of `CCc1c(Nc2ccccc2Cl)nc(N)[nH]c1=O`, the Potency entry is “inactive”. For the compound `O=C1NCC(c2ccccc2)(c2ccccc2)C(=O)N1`, the Potency result is “inactive”.

For the compound `CC(=O)OC1CCC2(C)C(=CCC3C4CC(=O)N(O)C(=O)C4(C)CCC32)C1` (centres undefined), the Potency result was “inactive”.

In the case of `O=c1[nH]c(=S)[nH]c(O)c1/C=C1\C=Nc2ccccc21`, the Potency result is “inactive”. For the compound `CN1CCC(N(C)C(=O)c2ccc(Cl)c(S(=O)(=O)Nc3ccc(Cl)cc3)c2)CC1`, the Potency entry is “inactive”. For the compound `O=C1CC(C(=O)O)NC(=S)N1` (centres undefined), the Potency result was “inactive”. In the case of `Cc1ccc(C)c(S(=O)(=O)N(C)c2ccc(OC(=O)C3CCN(C(=O)c4ccc(F)cc4)CC3)cc2)c1`, the Potency result was “inactive”. Regarding `COc1ccc(C(=O)Nc2cccc(/C=C(/CCC(=O)O)c3nc4ccccc4s3)c2)cc1`, the Potency result was “inactive”.

Turning to `O=C1COc2c1ccc(O)c2O`, the Potency entry is “inactive”. As to `COc1ccc(-c2nnc(-c3ccc4ccccc4c3)o2)cc1`, the Potency entry was “inactive”. Consider `CC(=O)c1cccc(-c2ccc(CN3C(CC(C)C)C(=O)N(Cc4cn(CC5CCCCC5)nn4)CCS3(=O)=O)cc2)c1` (centres undefined), for which the Potency result is “inactive”.

For the compound `Cn1c(N)cc(=O)n(C)c1=S`, the Potency entry was “inactive”.

As for `Nc1ccc2[nH]c(=S)sc2c1`, the Potency entry was “inactive”. For `Cc1nc(N)sc1-c1ccccc1`, the Potency entry was “inactive”.

As for `COc1ccc(Nc2ccc3ccccc3c2)cc1`, the Potency entry was “inactive”.

In the case of `O=C(CCC(=O)N1CCN(S(=O)(=O)c2ccc(Cl)cc2)CC1)NCc1cccc(C(F)(F)F)c1`, the Potency entry is “inactive”. In the case of `CCOC(=O)C(CO)NC(=O)C1(NC(C)=O)CCCC1` (centres undefined) (Ac-[Ac5c]-[ξS]-OEt), the Potency entry is “inactive”. Consider `CCN1CCC(O)(/C=C/c2ccc(C)cc2)C(C(=O)/C=C/c2ccc(C)cc2)C1` (centres undefined), for which the Potency entry was “inactive”. For `COC(=O)Cc1c(-c2[nH]c3ccccc3c2CC(=O)OC)[nH]c2ccccc12`, the Potency entry is “inactive”. Take `CC1(C)C(=O)CCC2(C)C1=CCC1C2C(=O)CC2(C)C1CCC2(O)C(=O)CO` (centres undefined): the Potency result was “inactive”. On to `C#CCOCCOCCOCCNc1nc(N2CCOCC2)nc(N2CCN(C(=O)[C@H](Cc3ccc(O)cc3)n3cc(CCO)nn3)CC2)n1`, for which the Potency entry was “inactive”. Under `CSc1ncnc2c1ncn2CC(=O)C1CCC2C3CCC4=CC(=O)CCC4(C)C3CCC12C` (centres undefined) stands “inactive”. Under `COc1ccc(/C=C/C(=O)OCC(=O)N2CCN(S(=O)(=O)c3ccc(C)cc3C)CC2)cc1OC` stands “inactive”. `CN(C)c1ccc(CSc2ccccc2)cc1`: the Potency result is “inactive”. In the case of `Cc1cccc(CC2(O)C(=O)Nc3ccccc32)n1` (centres undefined), the Potency entry was “inactive”. As to `O=C(Cc1ccc(NC(=O)C2CCCN(C(=O)CCc3ccccc3)C2)cc1)Nc1ccc(C(=O)N2CCOCC2)cc1` (centres undefined), the Potency result was “inactive”. `O=C(Cc1ccc(S(=O)(=O)N2CCOCC2)s1)Nc1ccc(Br)c(C(F)(F)F)c1`: the Potency entry is “inactive”. Consider `CN(CCc1ccccc1)C(=O)c1cccc(NC(=O)Cc2cccc(NC(=O)C3CCCN(C(=O)CCc4ccccc4)C3)c2)c1` (centres undefined), for which the Potency entry was “inactive”. With `COc1ccc(CNCCCNCc2ccc(OC)c(OC)c2)cc1OC`, the Potency entry was “inactive”. For `CCOc1cc(C=NNC(=O)CCCC(=O)NN=Cc2ccc(O)c(OCC)c2)ccc1O`, the Potency result was “inactive”.

In the case of `COc1ccc(Br)cc1/C=N/Nc1ccc(S(=O)(=O)Nc2ccccc2C(=O)O)cc1[N+](=O)[O-]`, the Potency result was “inactive”. The same measure for `O=C(NN=Cc1ccccc1O)NN=Cc1ccccc1O`: “inactive”; for `O=C(NNC(=O)c1ccccc1O)c1ccccc1O`: “inactive”.

As for `CCCN(CCC)S(=O)(=O)c1cc2c(cc1Br)CCN2C(=O)CC`, the Potency result was “inactive”. On to `CCOc1ccccc1NC(=S)C(=C([O-])c1ccc2c(c1)OCCO2)[n+]1ccc(CC)cc1`, for which the Potency result was “inactive”. In the case of `COc1ccc(N=C2C=CC(=O)O2)cc1`, the Potency result was “inactive”.

For `Cc1cccc(C=CC(=O)c2ccc(Cl)cc2)c1`, the Potency result is “inactive”. Turning to `COc1ccc(CCNC(=O)COc2cc(C)cc3oc(=O)c(C)c(C)c23)cc1OC`, the Potency entry is “inactive”.
